Shown are actives, neighbours in structure and some others; about 1.3% of the full set was active somewhere.
INS-1E GSIS act: primary screen for activators of insulin secretion dependent on glucose, INS-1E cells, GLuc reporter luminescence. 370,000 tested, 0.61% active. activation, % at 16.6 µM. AID 743287. INS-1E GLuc reporter insulin secretion, 2-3 h;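 active = lowest replicate activation of at least 40%, so every replicate reaches that level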;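 also: 0% = median of neutral control wells and 100% = median of IBMX positive control wells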
SR-BI uptake up: activators of SR-BI mediated HDL lipid uptake | activation, % at 12.5 µM | 320,000 tested, 0.096% active | CHO ldlA[mSR-BI] cells, DiI-HDL uptake fluorescence, 3 h; 100 = double the neutral-control signal;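 active = mean replicate activation of at least 60% and every replicate at or above 60%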;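 also: 0% = median plate neutral-control signal and 100% = twice that signal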
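Assay system: LDL receptor-deficient CHO ldlA cells overexpressing murine SR-BI / Medium: BSA-supplemented, HEPES-buffered Ham's F12, pH 7.4 / Probe or stimulus: DiI-labelled HDL at 10 µg/mL final / Timing: compound with DiI-HDL co-incubation, 3 h at 37 °C / Technique: bottom-read cell fluorescence after medium removal, ex 550/em 595 nm / Measure: HDL uptake via cellular fluorescence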
UUG fidelity: alters start codon recognition fidelity in yeast; AID 602363; activity score, % at 18.7 µM; 350,000 tested, 0.13% active; S. cerevisiae UUG-firefly luciferase reporter, luminescence/redox ratio;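 active means replicate mean at a twofold rise or more, about +100% in these data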;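 further: firefly luciferase made from a UUG start codon reports start codon fidelity; reporter light over untreated wells divided by growth signal over untreated wells; some hits fall short of that in this replicate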
SR-BI HDL uptake: blocks mouse SR-BI lipid uptake from DiI-HDL. Q61009. AID 488896. 320,000 tested, 0.96% active. inhibition, % at 12.5 µM. ldlA[mSR-BI] CHO cells, DiI-HDL uptake fluorescence, 3 h;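 active = mean replicate inhibition of at least 70% and a set share of replicates each scoring 70 or more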;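 also: 0% = median of neutral control wells and 100% = median of positive control wells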
Active calls of the source: *; i = inactive; / = not tested or not shown.

Codes: A = INS-1E GSIS act; B = SR-BI uptake up; C = UUG fidelity; D = SR-BI HDL uptake
1: O=C(c1ccncc1)N1CC(=O)N2[C@H](CO)[C@@H](c3ccc(C#CCC4CCCC4)cc3)[C@H]2C1
  A: 32	B: /	C: /	D: /

2: O=C(c1ccccc1NS(=O)(=O)c1ccc([N+](=O)[O-])cc1[N+](=O)[O-])N1O[C@@H]2C=C[C@H]1C2
  A: 49*	B: -10	C: -10	D: 10

3: CCCNC(=O)N1CCC2(CC1)CN(C(=O)Nc1ccc(F)cc1)[C@@H](CO)c1[nH]c3cc(OC)ccc3c12
  A: -24	B: /	C: /	D: /

4: CC(C)NC(=O)Nc1ccc2c(c1)C(=O)N([C@@H](C)CO)C[C@@H](C)[C@@H](CN(C)S(=O)(=O)c1ccc(F)cc1)OCCCC[C@@H](C)O2
  A: -13	B: /	C: 5	D: /

5: Cc1[nH]nc(C(F)(F)F)c1N=NN1CCOCC1
  A: 148*	B: 18	C: /	D: -18

6: C[C@@H]1CN([C@@H](C)CO)C(=O)c2cc(NC(=O)Cn3cnnn3)ccc2O[C@@H]1CN(C)C(=O)NC1CCCCC1
  A: 5	B: /	C: 3	D: /

7: Cc1noc(C)c1NC(=O)N(C)C[C@H]1Oc2c(NC(=O)c3cnccn3)cccc2C(=O)N([C@H](C)CO)C[C@H]1C
  A: 5	B: /	C: 8	D: /

8: COc1ccc(Nc2nc(NCc3cccs3)nc3ccsc23)cc1OC
  A: 48*	B: /	C: -16	D: /

9: COc1ccc(Nc2nc(NC(C)C)nc3ccsc23)cc1OC
  A: -1	B: /	C: -4	D: /

10: Cc1noc(C)c1NC(=O)Nc1cccc2c1O[C@H](CN(C)S(=O)(=O)c1ccc(Cl)cc1)[C@@H](C)CN([C@H](C)CO)C2=O
  A: 1	B: /	C: 5	D: /

11: COC(=O)c1[nH]c(=O)c2ccccc2c1O
  A: /	B: 31	C: -5	D: -11

12: COC(=O)c1[nH]c(=O)c2ccccc2c1OCc1ccccc1
  A: -13	B: 200*	C: -8	D: -200

13: O=C(C[C@@H]1CC[C@H]2[C@@H](COC[C@H](O)CN2C(=O)Nc2ccccc2)O1)NCc1ccncn1
  A: 10	B: /	C: 5	D: /

14: COc1c2c(cc3oc(=O)c4c5ccc(O)cc5oc4c13)OC(C)(C)CC2
  A: -3	B: -89	C: -11	D: 89*

15: COc1c(CC=C(C)C)c(O)cc2oc(=O)c3c4ccc(O)cc4oc3c12
  A: /	B: /	C: -12	D: /

16: O=C(COC(=O)c1cccnc1Cl)Nc1cc(S(=O)(=O)N2CCCCCC2)ccc1Cl
  A: 42*	B: -14	C: -14	D: 14

17: O=C(COc1cc(F)ccc1[N+](=O)[O-])Nc1cc(S(=O)(=O)N2CCCC2)ccc1Cl
  A: -1	B: -75	C: 10	D: 75*

18: O=C(COc1ccccc1[N+](=O)[O-])Nc1cccc(S(=O)(=O)N2CCCC2)c1
  A: 14	B: -34	C: -8	D: 34

19: CC(C)NC(=O)Nc1ccc2c(c1)CC(=O)N([C@@H](C)CO)C[C@H](C)[C@H](CN(C)Cc1ccccc1)O2
  A: -6	B: /	C: -5	D: /

20: COc1ccc(C#Cc2ccc3c(c2)[C@@H]2[C@@H](CCN2C(C)=O)[C@H](CO)N3)cc1
  A: -16	B: /	C: /	D: /

21: Cc1cn(CC(C)C)c(=O)n(-c2ccccc2)c1=O
  A: 51*	B: 12	C: -11	D: -12

22: COCC#Cc1ccc2c(c1)O[C@@H](CN(C)Cc1ccccc1)[C@@H](C)CN([C@H](C)CO)S2(=O)=O
  A: 15	B: /	C: 10	D: /

23: Nc1nc(SCC(=O)c2ccc(Br)s2)n[nH]1
  A: 2	B: 641*	C: /	D: i

24: Cc1cccc(Oc2ncc(-c3ccc(Cl)cc3)cn2)c1C
  A: /	B: 10	C: -10	D: -10

25: Cc1ccc(Oc2ncc(-c3ccc(Cl)cc3)cn2)cc1
  A: 46*	B: 20	C: -9	D: -20

26: O=C(NCCN1CCN(C(=O)c2ccc(Br)cc2)CC1)c1ccc(Br)cc1
  A: -24	B: -71	C: 16	D: 71*

27: C[C@H]1CCCCO[C@H](CN(C)C(=O)C2CCCCC2)[C@@H](C)CN([C@@H](C)CO)C(=O)c2cc(NC(=O)Nc3ccc(C(F)(F)F)cc3)ccc2O1
  A: 14	B: /	C: -17	D: /

28: CCCn1c(O)c(N=NC(=O)c2cccnc2)c2cc(Br)ccc21
  A: 41*	B: -23	C: -16	D: 23

29: Oc1ccc(F)cc1-c1cc(-c2ccc3c(c2)OCCO3)n[nH]1
  A: /	B: -79	C: /	D: 79*

30: Oc1ccccc1-c1cc(-c2ccc(F)cc2)n[nH]1
  A: /	B: -21	C: -13	D: 21

31: CCOc1ncccc1C(=O)Nc1ccc(S(=O)(=O)Nc2nccs2)cc1
  A: 86*	B: 0	C: -12	D: 0

32: CCOC(=O)/C=C/C(=O)Nc1ccc(S(=O)(=O)Nc2nccs2)cc1
  A: -5	B: -73	C: -10	D: 73*

33: CCOCC(=O)Nc1ccc(S(=O)(=O)Nc2nccs2)cc1
  A: 10	B: 8	C: -19	D: -8

34: COc1nc(N2CCOCC2)nc(-n2cccc2)n1
  A: 57*	B: -23	C: -7	D: 23

35: CCOC(=O)/C(=C\c1ccc(OC(F)F)cc1)C1=Nn2c(nnc2-c2ccc(Cl)cc2)SC1
  A: /	B: -89	C: /	D: 89*

36: CCOC(=O)/C(=C/c1ccc(OC(F)F)cc1)C1=Nn2c(nnc2-c2ccc(Cl)cc2)SC1
  A: /	B: -39	C: -15	D: 39

37: Cc1ccc2c(Cn3ccnc3)cc(=O)oc2c1C
  A: 1	B: 9	C: -8	D: -9

38: O=c1cc(Cn2ccnc2)c2cc(O)ccc2o1
  A: 0	B: -78	C: -6	D: 78*

39: C#CC(=O)N(c1ccc(OC)c(OC)c1)C(C(=O)NC1CCCC1)c1cccs1 (stereo unspecified)
  A: 37	B: -13	C: -9	D: 13

40: C#CC(=O)N(c1cccc(OC)c1)C(C(=O)NC1CCCC1)c1cccs1 (stereo unspecified)
  A: 146*	B: 12	C: -3	D: -12

41: Cc1cccc(N(C(=O)C(F)(F)F)C(C(=O)NC2CCCCC2)c2cccs2)c1 (stereo unspecified)
  A: -1	B: -12	C: -10	D: 12

42: Cc1cc(C)cc(N(C(=O)C(F)(F)F)C(C(=O)NC2CCCCC2)c2cccs2)c1 (stereo unspecified)
  A: 47*	B: 0	C: -6	D: 0

43: CN1C(=O)c2cc(NC(=O)NC3CCCC3)ccc2OC[C@@H]2O[C@@H](CC(=O)NCC3CC3)CC[C@H]21
  A: -3	B: /	C: /	D: /

44: COc1ccc(C(C#N)=Cc2ccc(OC)c(OC)c2)cc1
  A: 80*	B: /	C: -10	D: /

45: C[C@@H]1CN([C@H](C)CO)C(=O)c2cc(NC(=O)CCN3CCOCC3)ccc2O[C@@H]1CN(C)Cc1ccncc1
  A: 29	B: /	C: /	D: /

46: O=C(O)CSc1ncnc2sc3c(c12)CCC3
  A: /	B: 23	C: -4	D: -23

47: CCSc1ncnc2sc3c(c12)CCC3
  A: 43*	B: 8	C: -5	D: -8

48: O=C1c2ccccc2NC(c2ccccn2)N1c1ccc(Cl)cc1 (stereo unspecified)
  A: 62*	B: -10	C: -5	D: 10

49: COCC#Cc1cnc2c(c1)C(=O)N([C@H](C)CO)C[C@@H](C)[C@H](CN(C)Cc1ccccc1F)O2
  A: 19	B: /	C: /	D: /

50: COc1ccc(CN(C)C[C@H]2OCCCC[C@@H](C)Oc3ccc(NC(=O)c4ccncc4)cc3C(=O)N([C@@H](C)CO)C[C@@H]2C)cc1
  A: -14	B: /	C: 7	D: /

(cont.)
Codes: A = INS-1E GSIS act; B = SR-BI uptake up; C = UUG fidelity; D = SR-BI HDL uptake
51: C[C@@H]1CN([C@H](C)CO)C(=O)c2cc(NC(=O)Nc3ccc4c(c3)OCO4)ccc2O[C@@H](C)CCCCO[C@@H]1CN(C)C(=O)NC1CCCCC1
  A: 11	B: /	C: -8	D: /

52: COc1ccc2nc3ccccc3nc2c1NC(=O)c1ccc(Br)cc1
  A: 0	B: -17	C: -13	D: 17

53: COc1ccc(C(=O)Nc2cccc(NC(=O)c3ccc(OC)c(OC)c3)n2)cc1OC
  A: 3	B: -81	C: -4	D: 81*

54: COc1ccc2nc3ccccc3nc2c1NC(=O)c1ccc(Cl)cc1
  A: 70*	B: -8	C: -1	D: 8

Of the compounds above, 3 contain a nitro group on carbon.
Codes: A = INS-1E GSIS act; B = SR-BI uptake up; C = UUG fidelity; D = SR-BI HDL uptake
2: O=C(c1ccccc1NS(=O)(=O)c1ccc([N+](=O)[O-])cc1[N+](=O)[O-])N1O[C@@H]2C=C[C@H]1C2
  A: 49*	B: -10	C: -10	D: 10

17: O=C(COc1cc(F)ccc1[N+](=O)[O-])Nc1cc(S(=O)(=O)N2CCCC2)ccc1Cl
  A: -1	B: -75	C: 10	D: 75*

18: O=C(COc1ccccc1[N+](=O)[O-])Nc1cccc(S(=O)(=O)N2CCCC2)c1
  A: 14	B: -34	C: -8	D: 34
